From PubChem BioAssay
TDP1 inh = blocks human tyrosyl-DNA phosphodiesterase 1; recombinant TDP1, AlphaScreen DNA substrate cleavage; actives 0.28% (n = 350,000); AID 485290; Q9NUW8; Potency, µM (doses to about 130 µM), for inactives: at the top dose activity change, negative = inhibition, hits mostly inhibitors; note: potency is the fitted concentration of half-maximal effect; % is set by controls: 0 for no effect and ±100 for the full control effect; nearly all actives have a fitted effect of over 40% in size
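Here, a 5' biotin and 3' phosphotyrosine-FITC DNA oligonucleotide reports Tdp1 activity: intact substrate bridges AlphaScreen beads, while cleavage leaves a 3' phosphate and drops signal. All incubations at room temperature.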
uPA surface inh = cell surface uPA generation inhibition | cell surface uPA generation assay, qHTS | Potency, µM (doses to about 38.3 µM), without a hit: at the highest dose activity change, negative = inhibition, actives largely listed as inhibitors | actives 0.31% (n = 330,000) | AID 540303; active = well fitted inhibition curve with a large enough effect; inconclusive = small, poorly fitted or top-dose-only effect; inactive = no such curve, though single readings can be large or run the other way; tested in mouse RAW 264.7 cells; note: potency is the fitted concentration of half-maximal effect; % is set by controls: 0 for no effect and ±100 for the full control effect; nearly all actives have a fitted effect of over 55% in size
DT40 TDP1 no CPT = qHTS for Inhibitors of human tyrosyl-DNA phosphodiesterase 1 (TDP1): qHTS in cells in absence of CPT; DT40 Tdp1-/- hTDP1 cells, no CPT, ATP luminescence, 48 h; Potency, µM (top dose mostly 46.2 µM), inactives show at the top dose activity change, negative = growth inhibition, usual class: inhibitors; actives 15% (n = 420,000); AID 686978, 2013; note: potency is the fitted concentration of half-maximal effect; % is set by controls: 0 for no effect and ±100 for the full control effect; nearly all actives have a fitted effect of over 55% in size
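DT40 Tdp1-/-;hTDP1 cells, no CPT (DMSO vehicle only), 400 cells/well; compounds pin-transferred; ≥48 hr, 37 °C; CellTiter-Glo 30 min RT dark, luminescence read.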
DT40 TDP1 CPT = growth inhibition of DT40 Tdp1-/-;hTDP1 cells with camptothecin (screen for TDP1 inhibitors); chicken DT40 Tdp1-/-;hTDP1 cells + 20 nM CPT, ATP luminescence, 48 h; Potency, µM (doses to about 46.2 µM), for inactives: at the highest dose activity change, negative = growth inhibition, usual class: inhibitors; actives 12% (n = 420,000); note: potency is the fitted concentration of half-maximal effect; % is set by controls: 0 for no effect and ±100 for the full control effect; nearly all actives have a fitted effect of over 55% in size
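Chicken DT40 Tdp1-/- cells stably complemented with human TDP1 were seeded at 400 cells/well in medium containing 20 nM camptothecin, exposed to pin-transferred compounds, and grown at 37 °C for at least 48 hr. Viability was read as ATP luminescence.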
miR-21 reporter = miR-21 reporter, rising signal; HeLa miR-21 FLuc reporter, luciferase, 48 h; Potency, µM (titrated, usually from 38.3 µM), for the others: at the top dose reporter change, positive = more light; 340,000 tested, under 10 active; AID 2288; active = well fitted rising curve with a large enough effect; inconclusive = small, poorly fitted or top-dose-only effect; inactive = no such curve, though single readings can be large or run the other way;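 also: % of control where 0% means no effect; miR-21 action dims this reporter so a rising signal means less miR-21 action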
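Luminescence from a firefly luciferase reporter carrying a miR-21 binding site downstream, stably expressed under a CMV promoter in HeLa cells that make miR-21 endogenously, reports miRNA modulation after 48 h compound exposure up to approximately 40uM final.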
Numbers without * were called inactive; u = inconclusive; x = no result; [ ] = dose if it differs, or a comment. Only some compounds are listed: those with a hit (about 16% of all), similar ones and a draw of the others. Unless noted, calls come from the whole dose curve; as a rule, active = well fitted curve in the direction sought with a large enough effect; inconclusive = small, poorly fitted or top-dose-only effect, or another doubt; inactive = no such curve, though single readings can be large; an effect the other way counts as inactive or inconclusive.

SMILES	TDP1 inh	uPA surface inh	DT40 TDP1 no CPT	DT40 TDP1 CPT	miR-21 reporter
COC(=O)[C@@]1(Cc2ccc(F)cc2)[C@H]2c3cc(C(=O)N4CCCC4)n(CCO)c3C[C@H]2CN1C(=O)c1ccccc1	3.9%	1.3%	-21.7%	u	-3.0%
COC(=O)[C@@]1(Cc2ccc(F)cc2)[C@H]2c3cc(C(=O)N4CCCC4)n(CCc4ccc(OC)c(Br)c4)c3C[C@H]2CN1C(=O)c1ccccc1	9.9%	x	18.4µM*	u	x
COC(=O)[C@@]1(Cc2ccc(F)cc2)[C@H]2c3cc(C(=O)N(C)C)n(CC4CC4)c3C[C@H]2CN1C(=O)c1ccccc1	12.3%	x	18.4µM*	u	x
COc1ccc(N2CCN(C(=O)CSc3nnc(NC(=O)C4CC4)s3)CC2)cc1	2.5%	4.2%	u	3.9%	5.8%
CCn1c2ccccc2c2cc(NC(=O)C(C)Oc3ccc(OC)cc3)ccc21 (centres undefined)	2.1%	-3.1%	u	u	-1.8%
CCOc1ccccc1Nc1nc2ccccc2n2cnnc12	3.9%	5.2%	u	6.7%	-2.6%
Cn1cnnc1SCC(=O)Nc1ccc(OC(F)F)cc1	-2.9%	6.0%	11.3%	14.8%	-7.0%
CCN(CC)C(=O)c1cnn(-c2ccc(F)cc2)c1-n1cccc1	2.8%	x	x	x	3.1%
COC(=O)[C@@]1(Cc2ccc(OC)cc2)[C@H]2c3cc(C(=O)N4CCCC4)n(Cc4ccccc4)c3C[C@H]2CN1C(=O)c1ccccc1	x	x	16.4µM*	u	x
CC1CCCCC1NC(=O)CSc1ncnc2sccc12 (centres undefined)	x	x	u	-16.4%	x
CC(C)Cc1nc(NCCN2CCOCC2)c(C#N)c2c1COC(C)(C)C2	3.3%	-1.5%	18.4µM*	u	-6.7%
CCCCc1nc(NCCN2CCOCC2)c(C#N)c2c1COC(C)(C)C2	6.6%	-4.4%	u	-24.9%	-7.4%
CCc1nc(NCCN2CCOCC2)c(C#N)c2c1CCCC2	7.4%	-2.0%	-20.3%	3.26µM*	-17.3%
CO/N=C1\CN(c2nc3c(cc2F)c(=O)c(C(=O)O)cn3C2CC2)CC1CN (centres undefined)	5.7%[56.1 µM]	x	4.61µM*	4.61µM*	x
O=c1c2ccccc2nc(SCc2nc3ccccc3s2)n1Cc1ccco1	2.1%	7.0%	18.4µM*	13µM*	-3.9%
CCCCn1c(SCc2nc3ccccc3s2)nc2ccccc2c1=O	-4.2%	-1.8%	8.2µM*	20.6µM*	-5.0%
CCCCn1c(SCc2nc3ccccc3s2)nc2cc(S(N)(=O)=O)ccc21	7.0%	x	16.4µM*	16.4µM*	-9.1%
CCCCn1c(SCC#N)nc2ccccc2c1=O	-5.5%	x	u	7.5%	x
COc1ccc(NCc2cccn2-c2nnc(N3CCCCC3)s2)cc1OC	3.2%	x	16.4µM*	u	-21.6%
CCc1ccc(NCc2cccn2-c2nnc(N3CCCCCC3)s2)cc1	4.9%	x	16.4µM*	20.6µM*	-22.3%
COc1ccccc1NCc1cccn1-c1nnc(N2CCCCCC2)s1	8.5%	x	u	u	-8.5%
COc1cccc(CNCc2cccn2-c2nnc(N3CCN(c4ccccc4)CC3)s2)c1	8.5%	x	u	u	15.9%
Cc1ccc(CNCc2cccn2-c2nnc(N3CCCC3)s2)cc1	-2.1%	x	16.4µM*	u	-1.8%
Cc1cc(C)cc(NC(=O)c2cccn2-c2ncc(C(F)(F)F)cc2Cl)c1	5.9%	x	u	u	12.2%
O=C(O)c1ccccc1Nc1ccc(CCc2ccc(Cl)c(Cl)c2)cc1	16.7%	x	x	x	x
O=C(NC1CCCCC1)C(c1cccnc1)N(CCc1ccccc1)C(=O)Cc1cccs1 (centres undefined)	5.4%	2.4%	10.3µM*	u	-3.4%
O=C(NC1CCCC1)C(c1ccncc1)N(Cc1ccccc1)C(=O)Cc1cccs1 (centres undefined)	-2.0%	-6.2%	-21.7%	0.0%	-19.0%
O=C(NC1CCCC1)C(c1ccsc1)N(Cc1ccccc1)C(=O)Cc1cccs1 (centres undefined)	5.3%	-2.4%	13µM*	18.4µM*	9.8%
COC(=O)c1ccc(C(C(=O)NC2CCCCC2)N(Cc2ccccc2)C(=O)Cc2cccs2)cc1 (centres undefined)	2.3%	22.1%	4.11µM*	3.26µM*	-7.3%
COC(=O)c1ccc(C(C(=O)NC2CCCCC2)N(C(=O)Cc2cccs2)C2CC2)cc1 (centres undefined)	2.1%	1.9%	10.3µM*	8.2µM*	-0.5%

The closing three entries of the section before lead into the next.
SMILES	TDP1 inh	uPA surface inh	DT40 TDP1 no CPT	DT40 TDP1 CPT	miR-21 reporter
O=C(NC1CCCC1)C(c1ccsc1)N(Cc1ccccc1)C(=O)Cc1cccs1 (centres undefined)	5.3%	-2.4%	13µM*	18.4µM*	9.8%
COC(=O)c1ccc(C(C(=O)NC2CCCCC2)N(Cc2ccccc2)C(=O)Cc2cccs2)cc1 (centres undefined)	2.3%	22.1%	4.11µM*	3.26µM*	-7.3%
COC(=O)c1ccc(C(C(=O)NC2CCCCC2)N(C(=O)Cc2cccs2)C2CC2)cc1 (centres undefined)	2.1%	1.9%	10.3µM*	8.2µM*	-0.5%
COc1ccccc1CN(C(=O)Cc1cccs1)C(C(=O)NC1CCCC1)c1ccncc1 (centres undefined)	1.0%	-12.4%	u	u	-0.2%
O=C(NC1CCCC1)C(c1ccccc1)N(Cc1ccc2c(c1)OCO2)C(=O)Cc1cccs1 (centres undefined)	0.0%	5.7%	u	u	9.4%
COC(=O)[C@H](Cc1ccc(O)cc1)NC(=O)Cn1ccc(NC(=O)OCc2ccccc2)nc1=O	1.2%	6.0%	7.5%	0.9%	x
COc1ccc(NC(=O)c2cnc3n(c2=O)CCS3)cc1OC	2.6%	-3.9%	-2.3%	-6.4%	-7.9%
O=C(NCc1ccccc1)C(c1ccccc1)N(Cc1ccc2c(c1)OCO2)C(=O)Cc1cccs1 (centres undefined)	5.2%	0.2%	23.1µM*	u	-2.4%
COc1ccc(CNC(=O)C(c2ccc(C)o2)N(Cc2cccs2)C(=O)Cc2cccs2)cc1 (centres undefined)	-5.5%	-10.5%	u	29.1µM*	0.9%[7.66 µM]
Cc1nnc(SCC(=O)NC2CCCC2)n1CCc1ccccc1	x	2.6%	-4.1%	3.0%	-0.2%
COc1ccc(C(NC(=O)/C=C/c2ccco2)c2ccc(OC)cc2)cc1	-10.5%	-22.5%	u	u	-7.4%
c1ccc(CSC2=NCCCN2)cc1	0.9%	-1.9%	-0.4%	3.5%	-4.9%
O=C(CCSC1=NCCCN1)c1ccc(F)cc1	x	1.9%	2.91µM*	1.84µM*	x
COc1ccc(NC(=O)c2cc(-c3ccccc3)nc3c2cnn3C(C)C)cc1	-0.5%[56.1 µM]	8.91µM*	u	u	x
O=C(NCCN1CCOCC1)c1cnn2c(-c3ccccc3)cc(-c3ccccc3)nc12	7.6%	x	23.1µM*	u	-2.5%
COc1ccccc1CNC(=O)c1cnn2c(C(F)F)cc(C)nc12	1.1%	2.0%	u	u	-22.6%
COc1ccccc1CCNC(=O)c1cnn2c(C(F)F)cc(C)nc12	2.6%	-0.1%	23.1µM*	20.6µM*	-28.6%
O=C(NCCN1CCOCC1)c1cc(-c2ccccc2)nc2ccccc12	x	x	u	-17.2%	x
CCOc1ccccc1NC(=O)c1cnn2c(C(F)F)cc(-c3ccccc3)nc12	7.4%	x	23.1µM*	14.6µM*	u

Gathered by group: the entries above with a furan ring, fused or not (3)
SMILES	TDP1 inh	uPA surface inh	DT40 TDP1 no CPT	DT40 TDP1 CPT	miR-21 reporter
O=c1c2ccccc2nc(SCc2nc3ccccc3s2)n1Cc1ccco1	2.1%	7.0%	18.4µM*	13µM*	-3.9%
COc1ccc(CNC(=O)C(c2ccc(C)o2)N(Cc2cccs2)C(=O)Cc2cccs2)cc1 (centres undefined)	-5.5%	-10.5%	u	29.1µM*	0.9%[7.66 µM]
COc1ccc(C(NC(=O)/C=C/c2ccco2)c2ccc(OC)cc2)cc1	-10.5%	-22.5%	u	u	-7.4%
